Where only a bound is given, the exact number is not on record here.

The target in one experiment is BRD4 BD2 (Homo sapiens, UniProt O60885). The experiment in a line: NanoBRET bromodomain assay, NanoLuc-BRD4-BD2 in HEK293 cells. In kind it is binding. In general terms: BRET reads energy transfer from a luciferase to a nearby fluorophore.
The target in a further experiment is BRD4 BD1 (Homo sapiens, UniProt O60885). Kind of experiment: NanoBRET bromodomain assay, NanoLuc-BRD4-BD1 in HEK293 cells. The note with it: read-out: BRD4 BD1 IC50, 2 hours, IC50 rounded to nearest integer for banding.

In general, IC50 refers to the concentration needed to halve the response being measured. On to `Cn1cc(-c2cccnc2)c(-c2cn(C)c(=O)c3[nH]c(-c4cnn(C(F)(F)F)c4)c(Cl)c23)cc1=O`, for which the “Fold Selectivity BRD4 BD1/BD2” value on BRD4 BD2 (IC50 BD1/IC50 BD2, qualitative if an IC50 is at the upper limit) is “x (Fold >2 and ≤50)”. The IC50 was 200 to 1000 nM at BRD4 BD2 (read-out: BRD4 BD2 IC50, NanoBRET, HEK293 cells, 2 hours, IC50 rounded to nearest integer for banding) and above 1000 nM at BRD4 BD1.

Source of the values: patent US20260217701A1, “SELECTIVE BET INHIBITORS AND USES THEREOF” (Tay Therapeutics Limited, priority 2022, published 2026).
